# Binding of CDR-mutated scFvs to a peptide of the spike HR2 region

From the AlphaSeq antibody data of Li et al. 2023 (doi:10.1038/s41467-023-39022-2), copy in the FLAb collection.

Binding partner: SARS-CoV-2 spike HR2 peptide, sequence PDVDLGDISGINAS.

Ab-14 is the parent antibody, in scFv form: VH, then three GGGGS repeats, then VL. The heavy chain is unchanged in all variants.
VH: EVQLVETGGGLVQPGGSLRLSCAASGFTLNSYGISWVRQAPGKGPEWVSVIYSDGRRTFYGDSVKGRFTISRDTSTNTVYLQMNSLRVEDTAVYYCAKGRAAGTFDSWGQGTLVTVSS
VL: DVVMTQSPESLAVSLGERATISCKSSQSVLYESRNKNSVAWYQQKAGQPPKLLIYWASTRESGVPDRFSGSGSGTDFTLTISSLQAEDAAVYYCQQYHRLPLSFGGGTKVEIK

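These sequences belong to a second round, designed from the earlier measurements on random variants of the parent. Their group label is 14L_GP_Gen (GP: Gaussian process model; Gen: genetic algorithm; a sequence that several methods proposed may carry one label only). Affinity was read by AlphaSeq, a pooled yeast mating assay with surface-displayed partners. The frequency of each diploid, read from paired DNA barcodes, reflects how well the two displayed proteins bind. The ratio of observed to expected reads was calibrated, replicate by replicate, on BCL2-family standards whose Kd was known from biolayer interferometry. Mating was done six times.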

Variants are written as CDR1, CDR2 and CDR3 of the light chain (limits as in the source). Parent: KSSQSVLYESRNKNSVA, WASTRES, QQYHRLPLS. The read-out is the apparent dissociation constant on a log10 scale (nM): the lower, the stronger. Replicates are averaged; those with no signal do not enter the mean. "nd" means that the variant was in the library but no mating with the target was seen in that replicate; the authors take this as a sign of poor binding, and no number exists. Values of this round are not directly comparable with the first-round values of the same sequences. Background: pairings of all light chain designs with three empty control strains gave a value in 4% of cases (median 2.64, 5th percentile 1.59). Values in that range, when seen in few replicates, are hard to tell from nonspecific mating. Also given: how often the same scFv was detected with the empty control strains, with their mean in brackets. Of ten entries with the parent sequence, four were seen in most replicates (averages 0.34 to 2.37), three in one and three in none, so single entries are noisy. In the paper, a design with two or fewer of six values counts as a poor binder.

CDR-L1,CDR-L2,CDR-L3,log10 Kd (nM) by replicate,mean log10 Kd (nM),empty controls
KFEQSVLYESRNKNSVA,NASTRES,QQYHRLPLS,-0.22 / -0.29 / -0.29 / -0.48 / -0.34 / -0.11,-0.29,0/18
KLSQSVLYESRNKNSVA,EASQREM,QQYHRLPLS,1.07 / 1.04 / 0.43 / -0.01 / 0.22 / 0.26,0.50,0/18
KLSQSELYESRNKNSVA,HASTRES,QDYHRLPLS,0.33 / 0.40 / 0.32 / 0.46 / 0.30 / 0.42,0.37,0/18
KLSQSWLYESRMKNSVA,NASQRES,QQYHRLPLS,0.13 / -0.04 / -0.05 / -0.31 / -0.20 / 0.05,-0.07,3/18 (2.62)
KLPQSVLYESRNKNSVA,NASQREE,QQYHRLPLS,-0.61 / -0.21 / -0.48 / -0.68 / -0.71 / -0.47,-0.53,0/18
KLQQSVLYESRNKNAVA,EASTRES,QQYHRLPLS,0.11 / -0.38 / -0.29 / -0.42 / -0.44 / -0.27,-0.28,0/18
KLSQSYLYESGNKNSVA,NASTRES,QQYHRLPLS,-0.13 / -0.09 / -0.20 / -0.30 / -0.44 / -0.10,-0.21,0/18
KLSQSVLYESRNKNSVA,GASKRES,QQYHRLPLS,0.00 / -0.06 / -0.23 / -0.33 / -0.29 / 0.09,-0.14,0/18
KLSQSHLYESRNKWSVA,NASTRES,QQYHRLPLS,nd / 1.23 / 2.17 / 2.42 / 2.06 / 1.99,1.97,0/18
KIQQSELYESRNKNSVA,NASTRMS,QQYHRLPLS,-0.25 / -0.26 / -0.58 / -0.42 / -0.21 / -0.08,-0.30,1/18 (2.50)
KVSQSVLYESRNKNAVA,NASQRES,QQYHRLPLS,-0.41 / -0.40 / -0.56 / -0.54 / -0.58 / -0.29,-0.47,2/18 (2.64)
KVSQSVLYEDRNKNSVA,NASTRMS,QQYHRLPLS,0.04 / -0.24 / -0.26 / -0.27 / -0.27 / -0.24,-0.21,0/18
KLSQSVLYESRNKNSVA,NASTRES,QQYHRLPLT,-0.26 / -0.30 / -0.48 / -0.46 / -0.37 / -0.23,-0.35,0/18
KLSQSELYESRNKNSVA,NASTRES,QQYHRLPLE,-0.03 / 0.32 / -0.44 / -0.72 / -0.36 / 0.65,-0.10,0/18
KMPQSQLYESRNKNSVA,NASTRES,QQYHRLPLS,-0.17 / -0.30 / -0.50 / -0.59 / -0.52 / -0.21,-0.38,1/18 (2.67)
KVSQSVLYESRQKNSVA,NASTRES,QQYHRLPLS,-0.15 / -0.48 / -0.58 / -0.62 / -0.47 / -0.54,-0.47,0/18
KLMQSEGYESRNKNSVA,NASQRES,QQYHRLPLS,0.00 / -0.23 / -0.31 / -0.39 / -0.39 / -0.14,-0.25,2/18 (2.65)
KLSQSDLYESRNKNSVA,HASTREQ,QQYHRLPLS,0.86 / 0.33 / 0.54 / 0.15 / 0.37 / 0.54,0.46,0/18
KLSQSEDYESRNKNSVA,EASTRES,QQYHRLPLS,0.21 / 0.59 / 0.18 / 0.24 / 0.40 / 0.69,0.38,1/18 (2.66)
KLSQSVLYEDRMKNSVA,NASTRMS,QQYHRLPLS,-0.04 / -0.25 / -0.21 / -0.30 / -0.19 / -0.14,-0.19,2/18 (2.82)
KLSQSTLYESRNKNSVA,NASTREE,QQYHRLPLS,-0.07 / -0.18 / -0.26 / -0.22 / -0.41 / -0.07,-0.20,0/18
KLSQSVPYESRNKNSVA,EASTRES,QQYHRLPLS,0.81 / 0.53 / 0.37 / 0.50 / 0.55 / 0.89,0.61,2/18 (2.61)
KVSQSQLYESRNKNSVA,NASTRES,QQYHRLPLS,0.30 / 0.09 / 0.03 / 0.10 / 0.06 / 0.26,0.14,0/18
KLSQSHLYESRMKNSVA,NASQRES,QQYHRLPLS,0.14 / 0.19 / -0.02 / -0.14 / -0.03 / 0.12,0.04,0/18
KLMQSDLYESRNKNSVA,GASTRES,QQYHRLPLS,-0.01 / -0.15 / -0.73 / -0.33 / -0.27 / 0.06,-0.24,0/18
KLSFSVLYESRNKNNVA,EASTRES,QQYHRLPLS,0.42 / 0.09 / 0.31 / 0.21 / 0.21 / 0.15,0.23,1/18 (2.05)
KLQQSHLYESRMKNSVA,NASTRLS,QQYHRLPLS,0.64 / 0.10 / 0.10 / 0.02 / -0.15 / 0.38,0.18,0/18
KVSQSVLYESRNKNSVA,EASTREL,QQYHRLPLS,-0.10 / -0.19 / -0.19 / -0.10 / -0.29 / -0.01,-0.15,0/18
KLQQSMLYESRNKNSVA,EASTRES,QQYHRLPLS,0.06 / -0.11 / -0.19 / -0.56 / 0.14 / -0.09,-0.12,1/18 (3.11)
KLYQSVLYESRNKNSVA,NASLRES,QQYHRLPLS,0.40 / 0.28 / 0.32 / 0.13 / 0.05 / 0.35,0.25,1/18 (1.05)
KVQQSELYESRNKNSVA,HASTRES,QQYHRLPLS,-0.06 / -0.41 / -0.35 / -0.49 / -0.40 / -0.32,-0.34,3/18 (3.23)
KVSQSNLYESRNKNNVA,DASTRES,QQYHRLPLS,-0.33 / -0.33 / -0.43 / -0.50 / -0.40 / -0.33,-0.39,1/18 (2.51)
KLSQSFLYESRNKNSVA,GASTRES,QQYHRLPLS,-0.06 / -0.10 / -0.27 / -0.31 / -0.42 / -0.01,-0.20,1/18 (3.80)
KMSQSVPYESRNKNSVA,EASTRES,QQYHRLPLS,0.29 / 0.28 / -0.08 / 0.11 / -0.01 / 0.25,0.14,0/18
KLKQSWLYESRNKNSVA,NASTRES,QQYHRLPLS,0.36 / 0.10 / -0.07 / 0.14 / -0.02 / 0.37,0.15,2/18 (2.87)
KVSQSVLYESRNKNSVA,EASTRES,QQYHRLPLQ,-0.29 / -0.23 / -0.37 / -0.41 / -0.33 / -0.12,-0.29,1/18 (2.99)
KMSQSMLYESRNKNSVA,NASTRES,QQYHRLPLS,-0.08 / -0.28 / -0.43 / -0.70 / -0.36 / -0.28,-0.35,0/18
KLEQSWLYESRNKNNVA,NASTRES,QQYHRLPLS,0.07 / 0.03 / -0.22 / -0.33 / -0.03 / -0.02,-0.08,1/18 (2.79)
KLSQSVLYESRMKNSVA,EASQRES,QQYHRLPLS,0.85 / 0.96 / 0.56 / 0.26 / 0.67 / 0.40,0.61,0/18
KFSQSVLYESRNKNSVA,NASKRES,QQYHRLPLS,0.01 / -0.28 / -0.15 / -0.21 / -0.25 / 0.00,-0.15,3/18 (3.12)
KLSQSVLYESRNKNSVA,NADTRES,QQYHRLPLS,-0.33 / -0.62 / -0.44 / -0.81 / -0.56 / -0.19,-0.49,1/18 (2.18)
KMQQSQLYESRNKNSVA,NASTRES,QQYHRLPLS,-0.17 / -0.32 / -0.47 / -0.39 / -0.36 / -0.27,-0.33,1/18 (4.01)
KLSQSELYESRNKNSVA,NASYRLS,QQYHRLPLS,0.76 / 0.47 / 0.40 / 0.46 / 0.44 / 0.53,0.51,2/18 (2.55)

The opening 4 entries, copied out:

CDR-L1,CDR-L2,CDR-L3,log10 Kd (nM) by replicate,mean log10 Kd (nM),empty controls
KFEQSVLYESRNKNSVA,NASTRES,QQYHRLPLS,-0.22 / -0.29 / -0.29 / -0.48 / -0.34 / -0.11,-0.29,0/18
KLSQSVLYESRNKNSVA,EASQREM,QQYHRLPLS,1.07 / 1.04 / 0.43 / -0.01 / 0.22 / 0.26,0.50,0/18
KLSQSELYESRNKNSVA,HASTRES,QDYHRLPLS,0.33 / 0.40 / 0.32 / 0.46 / 0.30 / 0.42,0.37,0/18
KLSQSWLYESRMKNSVA,NASQRES,QQYHRLPLS,0.13 / -0.04 / -0.05 / -0.31 / -0.20 / 0.05,-0.07,3/18 (2.62)